This assay has as its system recombinant GR-LBD (hGR). The experiment in a line: Mass spectrometry of tryptic peptides of recombinant GR-LBD after ligand incubation (covalent binding). Also on record: species or system human.

The text below walks through data of PMC5672024, “Selective Glucocorticoid Receptor Properties of GSK866 Analogs with Cysteine Reactive Warheads” (Frontiers in Immunology, 2017).

Entries after “also recorded” stand apart in the source; their conditions may differ.

In the case of `C[C@@H]1C[C@H]2[C@@H]3CCC4=CC(=O)C=C[C@]4(C)[C@@]3(F)[C@@H](O)C[C@]2(C)[C@@]1(O)C(=O)COS(C)(=O)=O` [Dex-Mes, dexamethasone-21-mesylate, reference compound], the “Modifications: GR-LBD cysteine-containing peptide covalently bound” value is “cysteine C622; also recorded: Peptide 615–633 → C622”.
